pIC50: −log10 of the molar value.
Target: estrogen receptor (Homo sapiens (Human), UniProt P03372)
Assay: In vitro estrogen receptor binding assay
Settings: read-out: Receptor Binding IC50's; competition with [3H]17β-estradiol; cytosol of CHO cells overexpressing the estrogen receptor

Amino acid sequences for entries named in this document (tags omitted).
UniProt P03372, whole entry: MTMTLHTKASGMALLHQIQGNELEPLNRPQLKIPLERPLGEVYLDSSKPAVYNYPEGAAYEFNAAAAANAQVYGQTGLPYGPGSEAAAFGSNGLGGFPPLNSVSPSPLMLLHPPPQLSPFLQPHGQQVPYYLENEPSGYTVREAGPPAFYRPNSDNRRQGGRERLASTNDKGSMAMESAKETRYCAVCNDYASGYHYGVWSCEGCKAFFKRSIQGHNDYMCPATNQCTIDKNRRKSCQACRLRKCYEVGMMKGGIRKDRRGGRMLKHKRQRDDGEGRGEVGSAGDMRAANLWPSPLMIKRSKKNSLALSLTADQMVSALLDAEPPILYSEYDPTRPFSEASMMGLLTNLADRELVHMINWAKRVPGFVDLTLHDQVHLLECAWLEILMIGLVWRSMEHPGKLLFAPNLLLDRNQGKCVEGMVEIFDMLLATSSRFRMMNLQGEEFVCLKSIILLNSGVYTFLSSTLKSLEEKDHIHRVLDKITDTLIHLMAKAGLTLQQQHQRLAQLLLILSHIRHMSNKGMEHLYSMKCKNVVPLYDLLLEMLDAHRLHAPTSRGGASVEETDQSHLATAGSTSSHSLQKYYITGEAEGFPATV

`Cc1c(-c2ccc(O)cc2)n(Cc2ccc(OCCN(C)C)cc2)c2ccc(O)cc12` [No. 100, 2-(4-Hydroxy-phenyl)-3-methyl-1-[4-(2-dimethyl-1-yl-ethoxy)-benzyl]-1H-indol-5-ol] was tested, and the pIC50 was 7.22.

Reference: patent US8815934B2 (dated 2014)
